Where a name gives a salt, the structure may show the parent alone.
Tested on: mice
Assay: Soporific action of barbital sodium
[1] = 25 mg/kg i.p. + barbital sodium 250 mg/kg, P < 0.001
[2] = 100 mg/kg i.p. + barbital sodium 250 mg/kg, P < 0.001

CC(C)(CO)C(=O)C(=O)NCCCC(=O)O [KPA-Ca, calcium salt of ketopantoyl aminobutyrate]
Duration of sleep (1 mg/kg i.p. + barbital sodium 250 mg/kg): 159.1 ± 12.6 min
Lateral position (1 mg/kg i.p. + barbital sodium 250 mg/kg, P < 0.001): 26.5 ± 1.9 min
Duration of sleep (10 mg/kg i.p. + barbital sodium 250 mg/kg): 195.4 ± 12.1 min
Lateral position (10 mg/kg i.p. + barbital sodium 250 mg/kg, P < 0.001): 23.4 ± 1.5 min
Duration of sleep [1]: 121.2 ± 12 min
Lateral position [1]: 21.4 ± 0.6 min
Duration of sleep (50 mg/kg i.p. + barbital sodium 250 mg/kg, P < 0.001): 154.7 ± 10.3 min
Lateral position (50 mg/kg i.p. + barbital sodium 250 mg/kg, P < 0.01): 23.7 ± 1.9 min
Duration of sleep [2]: 181.8 ± 5.4 min
Lateral position [2]: 23.0 ± 0.8 min

— US5705687A, “Neurotropic drug and method for preparation of same” (priority 1993, dated 1998)
